Assay results from US10465009B2, “BCMA antigen binding proteins” (Amgen Inc., priority 2012, dated 2019).
Where a chain is given by its changes, count along the chain named.

T1: huBCMA on H929 cells (Homo sapiens, UniProt Q02223, N81S)
T1 construct: endogenous in cells; host or cells: H929 human multiple myeloma cell line
T1 sequence (Q02223 1-184 N81S): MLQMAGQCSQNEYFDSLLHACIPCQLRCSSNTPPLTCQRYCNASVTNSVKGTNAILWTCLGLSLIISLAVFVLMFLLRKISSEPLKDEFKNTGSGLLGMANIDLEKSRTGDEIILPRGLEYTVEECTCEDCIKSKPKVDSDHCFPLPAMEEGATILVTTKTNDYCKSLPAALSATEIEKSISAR

B1: 2A1: parental fully human anti-huBCMA mAb, Vh SEQ ID NO:214, Vl SEQ ID NO:248; heavy chain SEQ ID NO:287, light chain 288 (antibody)
heavy: EVQLVESGGGLVKPGRSLRLSCTASGFTFGDYALSWFRQAPGKGLEWVGVSRSKAYGGTTDYAASVKGRFTISRDDSKSFAYLQMNSLKTEDTAVYYCCSSGYSSGWTPFDYWGQGTLVTVSSASTKGPSVFPLAPSSKSTSGGTAALGCLVKDYFPEPVTVSWNSGALTSGVHTFPAVLQSSGLYSLSSVVTVPSSSLGTQTYICNVNHKPSNTKVDKKV[omitted - human IgG1 Fc]
light: QSVLTQPPSASGTPGQRVTISCSGSSSNIGSNTVNWYQQLPGTAPKLLIFNYHQRPSGVPDRFSGSKSGSSASLAISGLQSEDEADYYCAAWDDSLNGWVFGGGTELTVLGQPKAAPSVTLFPPSSEELQANKATLVCLISDFYPGAVTVAWKADSSPVKAGVETTTPSKQSNNKYAASSYLSLTPEQWKSHRSYSCQVTHEGSTVEKTVAPTECS
B2: 2A1CV5-MCC-DM1 (conjugate)
heavy: B1 heavy with R16G, T23A, F80T, C99A
light: B1 light with E106K

Assays:
[1] = target: T1, huBCMA on H929 cells; test: FACS binding to native BCMA on H929 myeloma cells; details: flow cytometry; muteins relative to parental 2A1
Description: Approximately 10 to 40×10^6 of H929 myeloma cells were resuspended in a staining solution (2% goat serum, 1% rabbit serum, 0.02% azide in PBS) and aliquoted into round-bottom, 96-well plate (Corning Incorp., Acton, Mass.) as per the experiment design. The cells were incubated at 4 degrees celsius for 30 minutes to block non-specific sites. The antibodies were titrated into the staining solution. The cells were rinsed in a rinse solution (PBS+0.02% azide) by resuspending the cells in 200 ul/well. The cells were centrifuged at 1500 rpm at 4 degrees celsius for 7 minutes. The rinse solution was removed and the rinse step was repeated. […] The huIgG1 negative control's secondary reagent was a biotinylated anti-huIgG (Jackson Labs, Bar Harbor, Me., Cat. 109-065-098), followed by a streptavidin-phycoerythrin (SA-PE) conjugate (BD Pharmingen, San Diego, Calif., Cat. 554061). […] The cells/antibodies were rinsed as described above to remove excess/unbound antibody. […] Samples were read at 532 nm wavelength on FACS.
To further characterize the engineered mutein antibodies, they were tested for the ability to bind BCMA by FACS analysis. […] The supernatants were removed and the cell pellets were resuspended in 0.2 mL/tube 4% paraformaldehyde in PBS and analyzed by flow cytometry

[2] = tested on: MM1R multiple myeloma cell line; test: Internalization assay in MM1R cells; format: cell-based, human; details: post incubation initiation
Description: H929 myeloma tumor cells were cultured in growth medium (RPMI 1640, 10% FBS, MEM non-essential Amino Acids, HEPES, beta-mercaptoethanol, Pen/Strep, L-glutamine, sodium pyruvate, gentamicin). The H929 cells were collected into two 3-ml FACS tubes at approximately 500,000 cells per tube and washed once with assay medium (PBS containing 2% FBS). […] After incubation at 4° C. for 30 minutes, the cells were washed once with assay medium. A cocktail of anti-human IgG, Alexa 488 (Molecular Probes Inc., Eugene, Oreg. Catalog# A11013 at a 1:1,000 dilution in assay medium) and Hoechst 33342 (Molecular Probes Inc., Eugene, Oreg. Catalog# H21492 at a 1:2000 dilution in assay medium) was added to the cells. […] The internalization rate was quantified on an ArrayScan V^TI HCS reader (version 6, Cellomics, Thermo Fisher Scientific, Pittsburgh, Pa.) with BioApplication “Spot Detector” algorithm employing a 40× objective. At least 200 cells were counted in each well.
The output parameter algorithm of ArrayScan was “SpotCountPerObjectCh2.” The results were reported as total spot count per 200 cells. […] The spot counts were expressed as the mean±standard error of the mean (SEM) for duplicate measurements (n=2). […] The half-life for internalization was calculated using one-phase exponential association from GraphPad™ Prism.

| Molecule | binding to BCMA on H929 cells [1] | time to half maximal levels of internalization [2] |
| --- | --- | --- |
| B1 | bound to human BCMA |  |
| B2 |  | about 50 minutes |
